Our source for the Ki values is US8067379B2, “Sulfur compounds as inhibitors of hepatitis C virus NS3 serine protease” (Schering Corporation, priority 2004, dated 2011).

Amino acid sequences for entries named in this document (tags omitted). Residues count along the entry.
UniProt P27958, 1027-1657: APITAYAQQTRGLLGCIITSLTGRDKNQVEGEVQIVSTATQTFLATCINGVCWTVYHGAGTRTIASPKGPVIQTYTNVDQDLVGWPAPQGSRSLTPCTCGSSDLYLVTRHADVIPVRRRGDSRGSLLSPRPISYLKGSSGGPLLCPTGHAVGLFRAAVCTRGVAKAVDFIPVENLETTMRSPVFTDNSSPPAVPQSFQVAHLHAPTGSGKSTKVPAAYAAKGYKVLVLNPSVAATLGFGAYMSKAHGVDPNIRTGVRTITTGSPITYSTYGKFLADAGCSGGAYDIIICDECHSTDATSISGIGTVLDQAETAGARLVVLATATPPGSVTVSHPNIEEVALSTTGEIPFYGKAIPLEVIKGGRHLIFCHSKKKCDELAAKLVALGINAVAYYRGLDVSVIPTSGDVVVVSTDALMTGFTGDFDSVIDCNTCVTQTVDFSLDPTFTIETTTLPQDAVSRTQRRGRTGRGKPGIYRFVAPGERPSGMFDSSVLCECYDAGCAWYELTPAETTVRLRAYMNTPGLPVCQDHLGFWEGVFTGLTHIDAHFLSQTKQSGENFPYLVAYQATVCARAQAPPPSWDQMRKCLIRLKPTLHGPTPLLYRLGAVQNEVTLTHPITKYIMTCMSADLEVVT
UniProt P27958, 1658-1711: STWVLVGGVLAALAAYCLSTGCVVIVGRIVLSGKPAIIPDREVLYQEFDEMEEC

A value given as a limit tells only on which side of the number the result lay.

The first assay has as its target Recombinant heterodimeric HCV NS3/NS4A protease (strain 1a) (Hepatitis C virus genotype 1a, UniProt P27958). The assay can be described thus: Spectrophotometric assay for HCV serine protease inhibitory activity (chromogenic ester substrates). The assay is classed as biochemical. As to conditions: Table 3, sulfone compounds; HCV serine protease; read-out: Ki* range.
Turning to `C#CCCC(NC(=O)[C@@H]1[C@@H]2[C@H](CN1C(=O)[C@@H](NC(=O)NC1(CS(=O)(=O)C(C)(C)C)CCCCC1)C(C)(C)C)C2(C)C)C(=O)C(=O)NCCCC` (stereo partly shown) [Compound 321], the Ki (usually a measure of affinity in units of concentration, obtained from inhibition or displacement) was in the range of 75 to 250 nM. Still for that read-out and setting: the value for `C=CCNC(=O)C(=O)C(CC1CC1)NC(=O)[C@@H]1[C@@H]2[C@H](CN1C(=O)[C@@H](NC(=O)NC1(C3CCCS3(=O)=O)CCCCC1)C1CCCCC1)C2(C)C` (stereo partly shown) [Compound 343] was below 75 nM. Still for that read-out and setting: the result for `CC1(C)[C@@H]2[C@@H](C(=O)NC(CC3CCC3)C(=O)C(N)=O)N(C(=O)[C@@H](NC(=O)NC3(CS(=O)(=O)C(C)(C)C)CCCCC3)C3Cc4ccccc4C3)C[C@@H]21` (stereo partly shown) [Compound 314] reads below 75 nM. Same read-out and setting: the value for `C=CCNC(=O)C(=O)C(CC1CC1)NC(=O)[C@@H]1[C@@H]2[C@H](CN1C(=O)[C@@H](NC(=O)NC1(CS(=O)(=O)C3CCCC3)CCCCC1)C(C)(C)C)C2(C)C` (stereo partly shown) [Compound 325] was below 75 nM. On to `C=CCNC(=O)C(=O)C(CCC)NC(=O)[C@@H]1[C@@H]2[C@H](CN1C(=O)[C@@H](NC(=O)NC(C(C)C)C1CCCS1(=O)=O)C(C)(C)C)C2(C)C` (stereo partly shown) [Compound 334], for which the Ki is below 75 nM. Still for that read-out and setting: the value for `CC(C)C[C@@](C)(CS(=O)(=O)C(C)(C)C)NC(=O)N[C@H](C(=O)N1C[C@H]2[C@@H]([C@H]1C(=O)NC(CC1CCC1)C(=O)C(N)=O)C2(C)C)C(C)(C)C` (stereo partly shown) [Compound 347] was 75 to 250 nM; that for `CC1(C)[C@@H]2[C@@H](C(=O)NC(CC3CCC3)C(=O)C(N)=O)N(C(=O)[C@@H](NC(=O)NC3(CS(=O)(=O)C(C)(C)C)CCCCC3)C3CCCCC3)C[C@@H]21` (stereo partly shown) [Compound 313] was below 75 nM; that for `C#CCCC(NC(=O)[C@@H]1[C@@H]2[C@H](CN1C(=O)[C@@H](NC1(CS(=O)(=O)C(C)(C)C)CCC(F)(F)CC1)C(C)(C)C)C2(C)C)C(=O)C(=O)NCC=C` (stereo partly shown) [Compound 351] was below 75 nM. The same measure, in the same setting: the value for `CC(C)C(NC(=O)N[C@H](C(=O)N1C[C@H]2[C@@H]([C@H]1C(=O)NC(CC1CCC1)C(=O)C(N)=O)C2(C)C)C(C)(C)C)C1CCCS1(=O)=O` (stereo partly shown) [Compound 329] was below 75 nM; that for `C#CCCC(NC(=O)[C@@H]1[C@@H]2[C@H](CN1C(=O)[C@@H](NC(=O)NC1(CS(=O)(=O)C(C)(C)C)CCCCC1)C(C)(C)C)C2(C)C)C(=O)C(=O)NCC` (stereo partly shown) [Compound 320] was below 75 nM; that for `C=CCNC(=O)C(=O)C(CC1CC1)NC(=O)[C@@H]1[C@@H]2[C@H](CN1C(=O)[C@@H](NC(=O)NC1(CS(=O)(=O)C(C)(C)CC)CCCCC1)C(C)(C)C)C2(C)C` (stereo partly shown) [Compound 327] was above 250 nM.

For `CC(C)(C)[C@H](NC(=O)NC1(C2CCCS2(=O)=O)CCCCC1)C(=O)N1C[C@H]2[C@@H]([C@H]1C(=O)NC(CCC(F)(F)F)C(=O)C(N)=O)C2(C)C` (stereo partly shown) [Compound 311], the Ki was below 75 nM.

The same assay, now with this note: Table 3A; class symbols; read-out: Ki* Range.
With `CCC[C@H](NC(=O)[C@@H]1CC2(CN1C(=O)[C@@H](NC(=O)NC1(CS(=O)(=O)C(C)(C)C)CCCCC1)C1(C)CCCCC1)SCCCS2)C(=O)C(=O)NC1CC1` [Compound 812], the Ki was below 75 nM. For `C=CCNC(=O)C(=O)C(CCC)NC(=O)[C@@H]1[C@@H]2[C@H](CN1C(=O)[C@@H](NC(=O)N[C@](C)(CC(C)C)CS(=O)(=O)C(C)(C)C)C1(C)CCCCC1)C2(C)C` (stereo partly shown) [Compound 404], the Ki is below 75 nM. The same measure, in the same setting: the value for `CC(C)C[C@](C)(CS(=O)(=O)C(C)(C)C)NC(=O)N[C@H](C(=O)N1C[C@H]2[C@@H]([C@H]1C(=O)NC(CC1CCC1)C(=O)C(N)=O)C2(C)C)C1(C)CCCCC1` (stereo partly shown) [Compound 400] was below 75 nM; that for `CC1([C@H](NC(=O)NC2(CS(=O)(=O)C(C)(C)C)CCCCC2)C(=O)N2C[C@H]3[C@@H]([C@H]2C(=O)NC(CC2CC2)C(=O)C(=O)NCC2CC2)C3(C)C)CCCCC1` (stereo partly shown) [Compound 411] was below 75 nM.
